The numbers were not newly measured in patent US8178525B2 (priority 2008, dated 2012), which cites them from elsewhere.

Amino acid sequences for entries named in this document (tags omitted). A change or cut given only in a name is not applied to a line headed by its entry.
UniProt P00742: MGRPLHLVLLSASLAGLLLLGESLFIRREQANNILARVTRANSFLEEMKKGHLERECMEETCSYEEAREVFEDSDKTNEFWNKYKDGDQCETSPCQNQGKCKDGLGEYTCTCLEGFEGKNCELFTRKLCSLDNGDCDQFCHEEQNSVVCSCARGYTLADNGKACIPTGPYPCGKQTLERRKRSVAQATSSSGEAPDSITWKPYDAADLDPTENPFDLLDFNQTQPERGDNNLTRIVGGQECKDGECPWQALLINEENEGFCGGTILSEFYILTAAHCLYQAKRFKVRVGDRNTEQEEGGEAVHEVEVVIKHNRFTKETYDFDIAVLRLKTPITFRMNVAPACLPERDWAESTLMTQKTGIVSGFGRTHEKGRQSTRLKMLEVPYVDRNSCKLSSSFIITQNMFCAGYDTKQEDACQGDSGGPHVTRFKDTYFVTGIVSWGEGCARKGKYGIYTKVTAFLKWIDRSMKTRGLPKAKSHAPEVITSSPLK

For the data set, the target named is factor Xa (Homo sapiens, UniProt P00742). To be noted: read-out: Ki value against factor Xa; cited from earlier work.

One may read the Ki as a measure of affinity in units of concentration, obtained from inhibition or displacement. For the substance antistasin, the inhibition constant (Ki) was 0.05 nM.
Turning to tick anti-coagulant peptide, the Ki is 0.5 nM.
